For the assay, the target named is human cytosolic seryl-tRNA synthetase (SerRS), tag-free recombinant (human) (UniProt P49591). In words: SEC. (SEC sorts molecules by how far they enter the pores of the column.)

By UniProt entry, the sequences of proteins in these tests, tags left out. Where a name states a change or a piece, a line headed by the entry shows the natural chain unless it says otherwise.
UniProt P49591: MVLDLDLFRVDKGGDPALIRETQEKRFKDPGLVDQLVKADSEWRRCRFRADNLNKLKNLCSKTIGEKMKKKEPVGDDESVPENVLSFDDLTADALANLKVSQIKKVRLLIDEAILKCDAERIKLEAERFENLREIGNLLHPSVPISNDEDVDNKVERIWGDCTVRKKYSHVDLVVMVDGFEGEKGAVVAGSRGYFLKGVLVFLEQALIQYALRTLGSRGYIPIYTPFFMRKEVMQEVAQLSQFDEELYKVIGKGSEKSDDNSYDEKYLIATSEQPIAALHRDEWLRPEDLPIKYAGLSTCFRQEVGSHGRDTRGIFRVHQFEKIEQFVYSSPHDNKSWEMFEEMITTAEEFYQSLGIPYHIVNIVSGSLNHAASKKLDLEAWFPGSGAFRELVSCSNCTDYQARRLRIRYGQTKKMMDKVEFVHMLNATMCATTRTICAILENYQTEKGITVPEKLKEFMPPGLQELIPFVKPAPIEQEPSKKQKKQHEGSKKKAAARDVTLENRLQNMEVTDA

Broadly, the stoichiometry N is the number of molecules, sites or subunits per partner or assembly. With “human cytosolic seryl-tRNA synthetase (SerRS), tag-free recombinant (from UniProt P49591) (enzyme; other documents disagree on this pair)”, the stoichiometry N amounted to 2.

These data come from paper doi:10.1101/2025.09.23.677902.
